# In ChEMBL document CHEMBL1134594 (J Med Chem, 2001):
# Target: Adenylate cyclase (Rattus norvegicus) (UniProt D4A3N4+P26770+Q04400+P26769+Q03343+P40146+Q8CFM9+P21932)
# Assay: Adenylate cyclase activity measured as percentage stimulation
# Format: protein assay
# Parameters: concentration or dose not given beside the values
sequence,measurement,value
GLUCAGON,Activity,100%
